Values quoted from earlier work in US20080160065A1, “DRUG DELIVERY POLYMER WITH HYDROCHLORIDE SALT OF CLINDAMYCIN” (priority 2006, published 2008).
Like-named read-outs stand apart in the source and are kept apart here.

Conditions: intramuscular

## CCC[C@@H]1C[C@@H](C(=O)N[C@@H]([C@H]2O[C@H](SC)[C@H](O)[C@@H](O)[C@H]2O)[C@H](C)Cl)N(C)C1 [clindamycin]
After a 300 mg dose
  peak plasma concentration: approximately 61 μg/ml
After a 600 mg dose
  peak plasma concentration: ~9 µg/mL
